Where “and” joins values, the source holds several entries; their conditions need not be identical. Equal values may be shown once.
Assays:
[1] = biological target: tumor-associated glycoprotein-72 (TAG-72) (human); assay: competition ELISA on TAG-72 plate, sample mixed 1:1 with biotin CC49 as competitor; residual biotin CC49 signal (LB negative control 0.359)
[2] = biological target: bovine submaxillary mucin (BSM), TAG-72-positive (bovine); assay: radiolabeled antibody bound to BSM beads
[3] = biological target: bovine submaxillary mucin (BSM), TAG-72-positive (bovine); assay: relative affinity constant, competition RIA on BSM, Scatchard analysis
[4] = biological target: bovine submaxillary mucin (BSM), TAG-72-positive (bovine); assay: competition RIA, 125I-labeled nCC49 as competitor, BSM as target antigen
[5] = biological target: tumor-associated glycoprotein-72 (TAG-72) (human); assay: competition ELISA on TAG-72 plate, unlabeled CC49 mixed 1:1 with biotin CC49 as competitor; residual biotin CC49 signal (LB negative control 0.359)

Substance	OD 405 nm - OD 450 nm Value at 50 minutes [1]	percent bound [2]	Ka [3]	amount required for 50% competition [4]	OD 405 nm - OD 450 nm Value at 50 minutes [5]
CC49 Fab	0.078 OD				
CC49 murine monoclonal antibody (native CC49)		> 85%	1.8e+08 M⁻¹	1.5 mg	0.076 OD
cCC49 chimeric CC49 monoclonal antibody		> 85% and 90%	1.2e+08 M⁻¹	2 mg	
